Reference: US20170319669A1, “METHOD OF ENHANCING VIRAL-MEDIATED GENE DELIVERY” (Wayne State University, priority 2016, published 2017)

System: retina (bipolar cell layer)

In the case of COc1cccc2c1C(=O)c1c(O)c3c(c(O)c1C2=O)C[C@@](O)(C(=O)CO)C[C@@H]3O[C@H]1C[C@H](N)[C@H](O)[C@H](C)O1 [doxorubicin], the “cytotoxicity (thinning of the retinas, decreased number of mCherry-expressing bipolar cells)” value (doxorubicin at the concentration of 2000M (so in the source), intravitreal, mice) is reported as “produced cytotoxicity”, the “bipolar cell layer appearance in retinal vertical sections” value (three months after co-injection, high DOX concentrations, representative images) is reported as “appears thinner” and the “thickness of bipolar cell layer vs control” value (three months after virus injection, co-injection of DOX at 300 or 500 μM) is reported as “statistically thinner than that of control”.
